From patent US20140128385A1 (NOVARTIS AG, priority 2011, published 2014)

Molecular target: T1, BACE-2 (Homo sapiens, UniProt Q9Y5Z0)
T1 construct: Recombinant BACE-2 (extracellular domain, expressed in baculovirus and purified using standard methods); made in house
T1 sequence (Q9Y5Z0 63-473 limits assumed): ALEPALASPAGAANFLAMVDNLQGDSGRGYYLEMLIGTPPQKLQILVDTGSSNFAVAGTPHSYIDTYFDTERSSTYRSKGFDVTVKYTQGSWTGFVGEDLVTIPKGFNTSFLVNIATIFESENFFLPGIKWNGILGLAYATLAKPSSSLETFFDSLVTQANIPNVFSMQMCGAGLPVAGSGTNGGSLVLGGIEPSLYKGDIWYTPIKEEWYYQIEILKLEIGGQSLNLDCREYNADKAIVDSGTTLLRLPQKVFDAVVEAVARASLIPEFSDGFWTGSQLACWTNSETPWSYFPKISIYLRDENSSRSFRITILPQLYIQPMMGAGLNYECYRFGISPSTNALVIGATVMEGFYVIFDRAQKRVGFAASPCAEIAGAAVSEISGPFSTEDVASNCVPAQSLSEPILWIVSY
Test: assay for inhibition of BACE-2
Assay type: biochemical

| IC50 (read-out: BACE-2 IC50) | SMILES | IC50 |
| --- | --- | --- |
| – | C[C@@]1(c2cc(NC(=O)c3ncc(OC(F)F)cc3Cl)ccc2F)CO[C@@](C)(C(F)(F)F)C(N)=N1 [Example 233, 3-Chloro-5-difluoromethoxy-pyridine-2-carboxylic acid [3-((3R,6R)-5-amino-3,6-dimethyl-6-trifluoromethyl-3,6-dihydro-2H-[1,4]oxazin-3-yl)-4-fluoro-phenyl]-amide hydrochloride] | 0.021 µM |
| – | C[C@@]1(c2cc(NC(=O)c3ncc(C#N)cc3N)ccc2F)CO[C@@](C)(C(F)(F)F)C(N)=N1 [Example 240, 3-Amino-5-cyano-pyridine-2-carboxylic acid [3-((3R,6R)-5-amino-3,6-dimethyl-6-trifluoromethyl-3,6-dihydro-2H-[1,4]oxazin-3-yl)-4-fluoro-phenyl]-amide] | 0.005 µM |
| 0.101 µM | C[C@@]1(c2cccc(NC(=O)c3ccc(C#N)cn3)n2)CO[C@@](C)(C(F)(F)F)C(N)=N1 [Example 266, 5-Cyano-pyridine-2-carboxylic acid [6-((3R,6R)-5-amino-3,6-dimethyl-6-trifluoromethyl-3,6-dihydro-2H-[1,4]oxazin-3-yl)-pyridin-2-yl]-amide] | – |

Structures can show the parent of a compound that is named as a salt. Where two headings read alike, the source gives them in different places.
